The text below walks through data of patent EP4843990A1, “AMINO HETEROARYL MACROCYCLIC COMPOUNDS AS WELL AS PREPARATION METHOD THEREFOR AND USE THEREOF” (dated 2026).

In one data set the test system is PC9. Nature of the data set: CellTiter-Glo cell proliferation inhibition assay. The note with it: read-out: Antiproliferative activity (IC50 (nM)) PC9; PC9 cells; 72 hours; CTG. Background: ATP-based viability assays read luminescence as a measure of living cells.
Data set [1] is described as follows: Cassette pharmacokinetic study in mice. The conditions noted are these: ICR mice; PO; cassette dosing; 10 mg/kg.
Another data set deals with A431. Briefly: CellTiter-Glo cell proliferation inhibition assay. The note with it: read-out: Antiproliferative activity (IC50 (nM)) A431; A431 cells; 72 hours; CTG.
A further data set deals with NCI-H1975. Nature of the data set: CellTiter-Glo cell proliferation inhibition assay. The conditions noted are these: read-out: Antiproliferative activity (IC50 (nM)) NCI-H1975; NCI-H1975 cells; 72 hours; CTG.
A further data set has as its system Ba/F3 (EGFR-L858R/C797S). Nature of the data set: CellTiter-Glo cell proliferation inhibition assay. The conditions noted are these: read-out: Antiproliferative activity (IC50 (nM)) Ba/F3 EGFR LR/CS; Ba/F3 (EGFR-L858R/C797S) cells; 72 hours; CTG.
Data set [2] deals with Ba/F3 (EGFR-L858R/T790M/C797S). Briefly: CellTiter-Glo cell proliferation inhibition assay. The note with it: read-out: Antiproliferative activity (IC50 (nM)) Ba/F3 EGFR LR/TM/CS; Ba/F3 (EGFR-L858R/T790M/C797S) cells; 72 hours; CTG.
Another data set deals with Ba/F3 EGFR wt+EGF. Briefly: CellTiter-Glo cell proliferation inhibition assay. The note with it: read-out: Antiproliferative activity (IC50 (nM)) Ba/F3 EGFR wt+EGF; Ba/F3 EGFR wt cells with EGF stimulation; 72 hours; CTG.

As for `CC1CCOc2c(cnn2C)-c2nccc(n2)Nc2cc3c1ccc(N1CCC(N(C)S(C)(=O)=O)C1)c3cn2` (stereo not drawn), the IC50 with PC9 is 23 nM. In addition, in data set [1], the “Area Under the Curve AUC0-24h” value came out at 28665 ng·h/mL, the “Half-life T1/2” value came out at 3.0 h and the “Maximum Concentration Cmax” value turned out to be 2193 ng/mL.

For `CC1COc2ccncc2-c2nccc(n2)Nc2cc3c1ccc(N1C[C@H](N(C)S(C)(=O)=O)[C@H]1C)c3cn2` (single isomer, unassigned), the IC50 with A431 was 3350 nM; with NCI-H1975 it was 36 nM; with PC9 it was 10 nM.

Take `CC1CCOc2c(cnn2C)-c2nccc(n2)Nc2cc3c1ccc(N1C[C@H](N=S(C)(C)=O)[C@H]1C)c3cn2` (stereo partly drawn): the results for the IC50 with A431 and with PC9 were 4190 nM and 15.2 nM, respectively.

Take `Cc1nn(C)c2c1-c1nccc(n1)Nc1cc3c(ccc(N4C[C@H](N(C)S(C)(=O)=O)[C@H]4C)c3cn1)CCCO2`: the IC50 was found to be 876 nM with A431, 0.9 nM in the data set on Ba/F3 (EGFR-L858R/C797S), 10.2 nM with NCI-H1975 and 8.3 nM in the data set with PC9.

Take `CCN([C@H]1CN(c2ccc3c4cc(ncc24)Nc2ccnc(n2)-c2cnn(C)c2OCCC3C)[C@@H]1C)S(C)(=O)=O` (single isomer, unassigned): the IC50 in the data set on A431 is 612 nM; in the data set with Ba/F3 (EGFR-L858R/C797S), 0.3 nM; in data set [2], 0.5 nM; in the data set on Ba/F3 EGFR wt+EGF it was 189 nM; in the data set with NCI-H1975, 0.6 nM; in the data set on PC9, 0.3 nM.

As for `C[C@@H]1[C@@H](CS(C)(=O)=O)CN1c1ccc2c3cc(ncc13)Nc1ccnc(n1)-c1cnn(C)c1OCCN2C`, the IC50 in the data set on NCI-H1975 was 51 nM; in the data set with PC9, 40 nM.

With `C[C@@H]1[C@@H](N(C)S(C)(=O)=O)CN1c1ccc2c3cc(ncc13)Nc1ccnc(n1)-c1cnccc1OCCN2C`, the IC50 in the data set with A431 turned out to be 410 nM; with Ba/F3 (EGFR-L858R/C797S), 5 nM; in data set [2], 3.1 nM; in the data set with Ba/F3 EGFR wt+EGF, 103 nM; with NCI-H1975 it was 1.3 nM; with PC9 it was 1.1 nM.

For `CC1CCOc2c(cnn2C)-c2nccc(n2)Nc2cc3c1ccc(N1CC4(C1)CN(S(C)(=O)=O)C4)c3cn2` (stereo not drawn), the IC50 in the data set on A431 was above 10000 nM; in the data set with PC9, 30.6 nM.

Turning to `C[C@@H]1[C@@H](N(C)S(C)(=O)=O)CN1c1ccc2c3cc(ncc13)Nc1ccnc(n1)-c1cnn(C)c1OCC(F)(F)C2`, the IC50 in the data set with NCI-H1975 is 9.9 nM; with PC9, 17.4 nM.

Regarding `CC1CCOc2ccncc2-c2nccc(n2)Nc2cc3c1ccc(N1C[C@H](CS(C)(=O)=O)[C@H]1C)c3cn2` (stereo partly drawn), the IC50 worked out at 468 nM with A431; 0.8 nM in the data set with Ba/F3 (EGFR-L858R/C797S); 1.4 nM in data set [2]; 80 nM in the data set with Ba/F3 EGFR wt+EGF; 1.5 nM in the data set on NCI-H1975; 0.5 nM in the data set on PC9.

Turning to `CC1CCOc2c(cnn2C)-c2nccc(n2)Nc2cc3c1ccc(N1C[C@H](NS(C)(=O)=O)[C@H]1C)c3cn2` (stereo partly drawn), the IC50 in the data set with A431 was 810 nM; in the data set on Ba/F3 (EGFR-L858R/C797S), 1.1 nM; with PC9, 2.1 nM.

Regarding `Cc1nn(C)c2c1-c1nccc(n1)Nc1cc3c(ccc(N4C[C@H](N(C)S(C)(=O)=O)[C@H]4C)c3cn1)N(C)CCO2`, the IC50 with A431 was found to be 1380 nM; in the data set with Ba/F3 (EGFR-L858R/C797S), 1.2 nM; in the data set with NCI-H1975, 11.4 nM; with PC9, 5.8 nM.

Take `Cc1cc2nc(n1)-c1cnn(C)c1OCCC(C)c1ccc(N3C[C@H](CS(C)(=O)=O)[C@H]3C)c3cnc(cc13)N2` (single isomer, unassigned): the IC50 in the data set on NCI-H1975 amounted to 28 nM; with PC9, 9.8 nM.

As to `C[C@@H]1[C@@H](N(C)S(C)(=O)=O)CN1c1ccc2c3cc(ncc13)Nc1ccnc(n1)-c1cnn(C)c1OCCCN2C`, the IC50 in the data set with NCI-H1975 was determined as 32 nM; in the data set with PC9, 34 nM.

As to `CC1COc2c(cnn2C)-c2nccc(n2)Nc2cc3c1ccc(N1C[C@H](N(C)S(C)(=O)=O)[C@H]1C)c3cn2` (stereo partly drawn), the IC50 with A431 is 857 nM; in the data set on Ba/F3 (EGFR-L858R/C797S) it was 13 nM; in the data set with PC9, 12 nM.
